Results on three molecules are retold here after US20110189347A1 (priority 2008, published 2011).

Assay [1] in a line: Growth performance of broiler chickens, floor pen trial over five weeks (Example 6). It counts as in vivo. To be noted: 10 mg/kg feed. The text has this:
The objective of the present trial (Trial A) was to evaluate the effects of sucinic acid on the growth performance of broiler chickens in a floor pen trial over five weeks. Succinic acid was supplemented at four different dose levels. […] Each group was placed in one floor pen littered with wood shavings and allocated to one of the different treatments. Each treatment was replicated with 4 groups per sex. Birds had ad libitum access to feed and tap water. […] Chickens received diets based on soybean meal, and wheat as main ingredients (Table 6). […] The target quantities of succinic acid were added on top to the feed, mixed with appropriate amounts of maize starch as a carrier: […] For the statistical evaluation of the data, a one-factorial analysis of variance for each diet (factor: treatment) was carried out. Where significant treatment effects (p<0.05) were indicated, the differences among treatment means were subsequently analyzed with the Newman-Keuls test.

Assay [2] has as its system pathogenic Escherichia coli K88. Description: microbe, parasite or virus in culture.

Consider `COC[C@H]1O[C@@H](OC2OC[C@@H]3O[C@]4(O[C@H]3[C@H]2OC(=O)C(C)C)O[C@H](C)[C@@](O)(C(C)=O)[C@@H]2OCO[C@H]24)[C@@H](OC)[C@@H](O)[C@@H]1O[C@@H]1O[C@H](C)[C@H](OC)[C@H](O[C@H]2C[C@@]3(C)OC4(C[C@@H](O)[C@H](O[C@H]5C[C@@H](O)[C@H](OC(=O)c6c(C)c(Cl)c(O)c(Cl)c6OC)[C@@H](C)O5)[C@@H](C)O4)O[C@@H]3[C@@H](C)O2)[C@H]1O` (some centres unmarked) [Avilamycin, reference compound], for which the entries for the “Feed intake, relative to control (100)” value in assay [1] (Day 1-22), in assay [1] (Day 1-36) and in assay [1] (Day 22-36) were 105, 94.3 and 102.5, respectively. The molecule `O=C(O)CC(O)(CC(=O)O)C(=O)O` [citric acid, reference compound] came in with an MIC90 in assay [2] of less than 31.2 mM.

`O=C(O)CCC(=O)O` [Succinic acid, succinic acid]: the MIC90 in assay [2] is less than 31.2 mM.
